# Antibody variant affinities, Ab-95 light chain, assay 2

Target peptide (SARS-CoV-2 spike, HR2 region): PDVDLGDISGINAS

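Phage display of a naive human antibody library on the peptide gave the parent. AAYL52 was designed without a model: most single CDR substitutions and a random sample of double and triple ones. Affinity was read by AlphaSeq, a pooled yeast mating assay with surface-displayed partners. After mating in shaken culture at 30 °C for 16 h, diploids were selected and their barcode pairs sequenced. The ratio of observed to expected reads was calibrated, replicate by replicate, on BCL2-family standards whose Kd was known from biolayer interferometry. There are three technical replicates.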

The variants keep the heavy chain, the linker and the frameworks of Ab-95 (scFv order VH, three GGGGS repeats, VL).
VH: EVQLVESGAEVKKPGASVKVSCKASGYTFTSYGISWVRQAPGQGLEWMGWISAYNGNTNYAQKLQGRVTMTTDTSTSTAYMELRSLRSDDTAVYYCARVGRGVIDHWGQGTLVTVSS
VL: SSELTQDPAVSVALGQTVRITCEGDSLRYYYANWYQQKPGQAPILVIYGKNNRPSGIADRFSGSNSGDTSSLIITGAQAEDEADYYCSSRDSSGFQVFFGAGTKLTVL

The parent's light chain CDRs are EGDSLRYYYAN, GKNNRPS, SSRDSSGFQVF; each variant's own CDRs replace them letter for letter.
Scale: log10 of Kd in nM, estimated from mating counts; low values are strong binders.
An entry "nd" has no value in the source: the pair was not observed among the diploids in that replicate. This suggests poor binding but is not conclusive.

CDR-L1,CDR-L2,CDR-L3,"replicates, log10 nM",signal with controls
EGDSLRYCYAN,GKNNRPS,SSRPSSGFQVF,3.21 / 5.47 / 4.58,4/9 (3.60)
EGDWMRYYYAN,GKNNRPS,SSRDSFGFQVF,nd / 3.37 / nd,6/9 (3.78)
EGDCLRYYYAK,GKNNRPS,SERDSSGFQVF,4.31 / nd / 4.48,2/9 (3.84)
KGRSLRYYYAN,GKNNRPQ,SSRDSSGFQVF,2.38 / 2.09 / 2.14,3/9 (3.71)
EGDSLRYYYLN,GKNNRPS,KSRDSSGFQVF,nd / nd / nd,5/9 (4.14)
EGDSLRYYYAN,GKTNRPS,SSRDSSGSQVF,3.13 / 2.71 / 1.95,4/9 (3.40)
EGDSLRYYYAN,GKNNRPS,SSADSDGFQPF,2.52 / 2.60 / 2.82,5/9 (4.13)
EGDSLSYYYLN,GKNNRPS,SSRDSPGFQVF,nd / nd / nd,1/9 (4.22)
EGDSLRYYYAV,GKNNRTS,SSRDSSGFQVP,3.19 / nd / 4.13,2/9 (3.60)
EGDSLRPYYAN,GKNNRPS,SSCDSSDFQVF,3.71 / 3.28 / 2.75,6/9 (3.71)
EGDSLRYYYAN,GKNNSPS,SSRDSFGFQRF,2.87 / 2.99 / 3.10,3/9 (3.86)
EGDSLRYYYAN,GKNNRPS,SDRDSSWFQVF,3.60 / 2.92 / 2.59,1/9 (3.97)
EGDSLRYYYAN,GKNNRAT,SSRDSSGFQSF,2.12 / 2.07 / 2.54,2/9 (4.14)
EGASLRYYYAN,GTNNRPS,SSRDSYGFQVF,2.62 / 3.65 / 4.37,1/9 (3.42)
EGAMLRYYYAN,GKNDRPS,SSRDSSGFQVF,3.64 / 3.19 / nd,3/9 (3.71)
EGDSLRMYYKN,GINNRPS,SSRDSSGFQVF,4.53 / 5.72 / nd,5/9 (3.59)
EGDSLRYTYAN,GKNNRPS,SSRMSSGFQVN,nd / 3.58 / nd,0/9
EGDSLRYSYAN,GKNQRPS,SSRDSSGFFVF,1.33 / 1.34 / 1.11,4/9 (4.14)
EGDSLRYYYAV,GKNVRPS,SSRDSSGPQVF,3.70 / 5.44 / nd,5/9 (4.01)
EILSLRYKYAN,GKNNRPS,SSRDSSGFQVF,4.04 / 4.18 / 4.13,1/9 (3.90)
EGDSLRYYYAN,GKNNRPA,SSRDMSGEQVF,3.78 / 2.78 / 2.65,3/9 (4.47)
EGDDLRYYYAN,GVFNRPS,SSRDSSGFQVF,4.74 / nd / nd,5/9 (4.41)
EGDSLRYYDAN,GKNNRPS,SSRDSSSFQVF,1.97 / 1.71 / 1.46,1/9 (4.15)
EGDSLRYYYAN,GKNNRLS,SSNDSSGFPVF,nd / 5.81 / nd,5/9 (3.99)
EGDSLRYYYAN,GKNNRPS,MSRDSQHFQVF,3.29 / nd / nd,3/9 (3.72)
EGDSLRYSYWN,GKNNRPF,SSRDSSGFQVF,nd / 3.34 / nd,0/9
EGDSLHWYYAN,GWNNRPS,SSRDSSGFQVF,4.53 / 5.63 / 4.35,4/9 (3.91)
EGDSGRYYYAN,GKNNRPS,SSRLSSGFLVF,nd / 6.08 / nd,5/9 (5.02)
EGDSLRYYYAN,GKNNRPS,SWRDSSGFLVF,3.06 / 2.84 / 2.74,5/9 (4.18)
EGDSLYYYYAN,GKNNRPS,SSRDSSFDQVF,3.33 / 3.67 / 4.22,3/9 (4.00)
EGDSLREYYAN,GKNVRPS,SSRDSSHFQVF,3.60 / 5.27 / nd,2/9 (4.15)
EGDSLRYYYAY,GKNNRPV,SSRDSSGFDVF,3.83 / 5.49 / nd,3/9 (3.77)
EGDSLRYDAAN,GKNNEPS,SSRDSSGFQVF,2.78 / 2.77 / 3.42,3/9 (3.25)
EGDSLRYDYAC,GQNNRPS,SSRDSSGFQVF,3.42 / 4.81 / 3.49,5/9 (4.01)
PGDPLRYYYAN,GKNNEPS,SSRDSSGFQVF,nd / 4.52 / nd,1/9 (3.92)
EGDSLRYYGAN,GKNNRCS,SSCDSSGFQVF,nd / nd / 4.40,4/9 (4.48)
WGDSLRYYYAN,GKNRRPS,SDRDSSGFQVF,4.17 / nd / nd,2/9 (4.02)
EGDSLCYYWAN,GKNNRPS,SARDSSGFQVF,2.92 / 2.55 / 2.21,3/9 (3.43)
EGDSLRYYYAN,GKNLRPS,SSCDSSGFQVF,4.14 / nd / 3.71,1/9 (3.63)
EGDSLRYYYAN,GKNNFPS,SIRDSSNFQVF,nd / nd / nd,5/9 (3.89)
EGDSLRYIYAN,GKNNRPS,SSMDSSAFQVF,nd / nd / nd,1/9 (3.94)
EGSSLRYYYAN,GKNIRPS,SSRDSSGFQVS,3.06 / 2.90 / 2.13,4/9 (3.69)
EGPFIRYYYAN,GKNNRPS,SSRDSSGFQVF,3.97 / 3.46 / 4.52,4/9 (3.98)
EGDSLRYYYAN,GKNNQCS,SSVDSSGFQVF,nd / 5.64 / 2.72,5/9 (3.61)
EGDSLRYYYRN,GPNNRPS,SSRDSSHFQVF,5.39 / nd / nd,3/9 (4.40)
EYDSLRYYYAN,GKPNRPS,SSRDISGFQVF,3.87 / nd / nd,5/9 (3.76)
EGDSLHYYYAN,GKNNRPS,SPRDSSGFQVF,3.43 / nd / nd,3/9 (3.88)

The opening 8 entries, copied out:

CDR-L1	CDR-L2	CDR-L3	replicates, log10 nM	signal with controls
EGDSLRYCYAN	GKNNRPS	SSRPSSGFQVF	3.21 / 5.47 / 4.58	4/9 (3.60)
EGDWMRYYYAN	GKNNRPS	SSRDSFGFQVF	nd / 3.37 / nd	6/9 (3.78)
EGDCLRYYYAK	GKNNRPS	SERDSSGFQVF	4.31 / nd / 4.48	2/9 (3.84)
KGRSLRYYYAN	GKNNRPQ	SSRDSSGFQVF	2.38 / 2.09 / 2.14	3/9 (3.71)
EGDSLRYYYLN	GKNNRPS	KSRDSSGFQVF	nd / nd / nd	5/9 (4.14)
EGDSLRYYYAN	GKTNRPS	SSRDSSGSQVF	3.13 / 2.71 / 1.95	4/9 (3.40)
EGDSLRYYYAN	GKNNRPS	SSADSDGFQPF	2.52 / 2.60 / 2.82	5/9 (4.13)
EGDSLSYYYLN	GKNNRPS	SSRDSPGFQVF	nd / nd / nd	1/9 (4.22)

Three control strains display no target. For library AAYL52, 28% of the pairings with them gave a signal, with a median of 3.91 and one signal in twenty below 2.90, so weak values seen in few replicates may be background. The control count says in how many pairings with the empty strains this scFv gave a signal, with their mean in brackets.

The measurements come from Engelhart et al. 2022 (doi:10.1038/s41597-022-01779-4) through the FLAb antibody collection.